Measured values taken from patent publication US20260042769A1, “TRIARYL AGONISTS OF ALPHA-2 ADRENERGIC RECEPTORS” (ALCEPTOR THERAPEUTICS, INC., priority 2023, published 2026).

Protein sequences, listed by entry. Tags and fused reporters are not part of them.
UniProt P18089, whole entry: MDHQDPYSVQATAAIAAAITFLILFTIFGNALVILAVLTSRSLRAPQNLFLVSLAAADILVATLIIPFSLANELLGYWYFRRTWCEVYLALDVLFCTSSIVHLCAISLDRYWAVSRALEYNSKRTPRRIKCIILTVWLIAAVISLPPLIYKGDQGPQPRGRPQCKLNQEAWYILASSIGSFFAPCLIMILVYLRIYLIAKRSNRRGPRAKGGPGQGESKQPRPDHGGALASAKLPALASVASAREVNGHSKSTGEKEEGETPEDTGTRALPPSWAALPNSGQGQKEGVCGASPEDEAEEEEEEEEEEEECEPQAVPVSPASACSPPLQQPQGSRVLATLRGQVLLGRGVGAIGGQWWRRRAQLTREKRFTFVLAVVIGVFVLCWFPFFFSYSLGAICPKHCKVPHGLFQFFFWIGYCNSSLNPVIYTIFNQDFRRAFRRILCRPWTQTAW

Molecular target: human ADRA2B receptor (Homo sapiens, UniProt P18089)
Experiment: ADRA2B arrestin agonist assay
Details: read-out: Beta-Arrestin - Human Alpha2B EC50; CHO-K1 cells stably expressing human ADRA2B

SMILES | EC50 [nM]
Cc1nccc(C[C@@H](c2c[nH]cn2)c2cccc3c2OCCCO3)n1 | 50 to 500
Cc1cccc([C@H](Cc2ccn(C3CC3)n2)c2c[nH]cn2)c1C | < 10
